Laboratory results published in ChEMBL document CHEMBL4002601, “A triple exon-skipping luciferase reporter assay identifies a new CLK inhibitor pharmacophore” (Bioorg Med Chem Lett, 2017).
Activity calls are given as the source filed them. The rule behind the calls is not given here.

Amino acid sequences for entries named in this document (tags omitted). A change or cut given only in a name is not applied to a line headed by its entry.
UniProt P49759: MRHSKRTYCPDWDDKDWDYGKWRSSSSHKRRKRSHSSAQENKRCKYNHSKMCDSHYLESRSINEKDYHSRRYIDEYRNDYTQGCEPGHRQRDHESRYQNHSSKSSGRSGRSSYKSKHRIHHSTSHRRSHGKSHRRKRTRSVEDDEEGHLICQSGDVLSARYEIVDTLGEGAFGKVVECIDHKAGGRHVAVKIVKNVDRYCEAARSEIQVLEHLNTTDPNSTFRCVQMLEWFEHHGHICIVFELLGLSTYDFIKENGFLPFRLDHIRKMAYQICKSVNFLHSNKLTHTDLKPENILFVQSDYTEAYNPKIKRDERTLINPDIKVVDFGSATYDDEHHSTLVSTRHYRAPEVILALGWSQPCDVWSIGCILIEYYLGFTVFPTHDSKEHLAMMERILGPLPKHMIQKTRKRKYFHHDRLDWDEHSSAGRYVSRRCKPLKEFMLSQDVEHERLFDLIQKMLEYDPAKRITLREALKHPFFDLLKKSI
UniProt O70551, whole entry: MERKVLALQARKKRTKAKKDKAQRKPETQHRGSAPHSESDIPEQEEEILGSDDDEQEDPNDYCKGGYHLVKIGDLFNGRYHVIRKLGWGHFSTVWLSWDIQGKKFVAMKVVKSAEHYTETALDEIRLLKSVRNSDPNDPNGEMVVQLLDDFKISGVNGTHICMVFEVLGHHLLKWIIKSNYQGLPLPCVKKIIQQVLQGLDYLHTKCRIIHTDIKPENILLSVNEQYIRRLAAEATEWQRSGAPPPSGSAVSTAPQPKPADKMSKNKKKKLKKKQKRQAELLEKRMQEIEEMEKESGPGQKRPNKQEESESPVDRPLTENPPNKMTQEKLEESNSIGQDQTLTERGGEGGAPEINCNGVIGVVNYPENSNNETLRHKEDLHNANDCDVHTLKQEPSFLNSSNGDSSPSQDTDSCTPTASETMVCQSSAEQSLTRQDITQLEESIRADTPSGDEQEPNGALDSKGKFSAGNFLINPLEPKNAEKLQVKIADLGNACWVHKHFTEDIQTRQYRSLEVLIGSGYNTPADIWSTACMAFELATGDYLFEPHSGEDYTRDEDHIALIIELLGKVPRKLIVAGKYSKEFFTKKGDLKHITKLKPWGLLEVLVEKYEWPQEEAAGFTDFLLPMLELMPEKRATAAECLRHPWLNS

What was measured:
[1] = target: Dual specificity protein kinase CLK1 (Homo sapiens, UniProt P49759); test: Inhibition of CLK mediated SF3B1 activation in human SK-MEL-2 cells assessed as MDM2-pre mRNA exon skipping at 10 uM after 4 hrs by luciferase reporter gene assay relative to control; type: cell-based
SRSF protein kinase 1 = SRSF protein kinase 1 (Mus musculus, UniProt O70551); test: Inhibition of mouse His6-tagged SRPK1 expressed in Escherichia coli(BL21)

Row | Compound | inhibition [1] | Ki (SRSF protein kinase 1) [nM]
1 | CCn1cnc2c(Nc3cccc(Cl)c3)nc(N[C@@H]3CCCC[C@@H]3NC(C)=O)nc21 (racemic) | inactive | 
2 | O=C(Nc1cc(C(F)(F)F)ccc1N1CCCCC1)c1ccncc1 |  | 890
3 | COCCNc1nc(Nc2cccc(Cl)c2)c2ncn(C(C)C)c2n1 | inactive | 
